# Data published in PubChem BioAssay AID1346984 (Tox21, 2019).
# The entries are a selection whose mix differs from that of the whole data set. Records with an inconclusive call do not appear. The source made the active and inactive calls. Calls come from the whole dose curve; as a rule, active = well fitted activation curve with a large enough effect in the repeat runs; inconclusive = weak or mixed curves; inactive = no such curve, though single readings can be large or run the other way.
# Molecular target: Nuclear receptor subfamily 1 group I member 2 (Homo sapiens) (UniProt O75469)
# Assay: CYP3A4 induction through human pregnane X receptor (PXR) by small molecules, qHTS assay; note: nearly all actives have a fitted effect of over 40% in size
# Conditions: DPX-2 HepG2 PXR, CYP3A4-luciferin luminescence, 24 h; at 46.1 µM (top of the series)
# From the text: National Center for Advancing Translational Sciences [NCATS]
# NIH Chemical Genomics Center [NCGC]
# U.S. Environmental Protection Agency [EPA]
# National Institutes of Environmental Health Sciences [NIEHS]
# National Toxicology Program [NTP]
# The Pregnane X receptor (PXR), a ligand activated nuclear receptor plays a critical role in the regulation of genes involved in drug metabolism and transporters. Activation of PXR is responsible for unwanted adverse drug reactions. PXR binds xenobiotics and when compounds interact with PXR enhances the expression of CYP3A genes. Identifying the compounds with the potential for PXR activation and CYP3A4 induction can be of importance in improving the efficacy of drugs with less toxicity and avoiding drug-drug interactions.
# DPX-2 (Puracyp, Inc.) cell lines, used for screening against human PXR activation has HepG2 cells co-transfected with a PXR response element and a luciferase construct containing CYP3A4 promoter. […]
# DPX-2 cells were dispensed at 2,000 cells per well in 5uL of assay medium into white, solid-bottom 1536-well plates using a Multidrop Combi dispenser (Thermo Scientific). […] Then 5ul One-Glo assay reagent (Promega) was added to each plate by an FRD and following 30 min incubation at room temperature, luciferase activity was quantified on a ViewLux plate reader (Perkin Elmer).
# % is set by controls: 0 for no effect and ±100 for the full control effect.
row,SMILES,activation
1,O=C(OC1CN2CCC1CC2)c1ccccc1 (configuration not stated),inactive: 0.497%
2,CN(C(=O)Cc1ccccc1)[C@H]1CC[C@@]2(CCCO2)C[C@@H]1N1CCCC1,inactive: -2.63%
